One test addresses T1, CRF2R (Homo sapiens, UniProt Q13324).
T1 sequence (Q13324 1-411): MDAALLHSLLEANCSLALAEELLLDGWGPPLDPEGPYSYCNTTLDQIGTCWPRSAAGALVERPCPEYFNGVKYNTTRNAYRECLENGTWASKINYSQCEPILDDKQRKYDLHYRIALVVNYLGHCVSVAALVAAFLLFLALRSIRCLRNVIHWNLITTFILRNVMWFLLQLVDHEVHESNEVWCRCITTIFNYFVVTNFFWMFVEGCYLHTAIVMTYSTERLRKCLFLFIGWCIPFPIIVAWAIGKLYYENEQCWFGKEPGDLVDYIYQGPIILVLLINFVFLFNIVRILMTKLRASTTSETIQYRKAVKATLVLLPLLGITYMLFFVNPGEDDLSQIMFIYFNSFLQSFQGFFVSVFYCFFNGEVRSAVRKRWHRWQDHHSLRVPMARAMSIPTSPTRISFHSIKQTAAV
Nature of the test: CRF2R agonist activity (EC50 and Emax), called comparative CRF binding. It is filed as cell-based. In short, it runs like this:
(§1)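 Agonism measured through CRE-linked reporter expression or lysate cAMP after peptide treatment of CRF1R- or CRF2R-expressing cells, compared against vehicle-treated cells; background from a co-expressed non-target CRFR is subtracted.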

For the next test, the target named is T2, CRF1R (Homo sapiens, UniProt P34998).
T2 sequence (P34998 24-415): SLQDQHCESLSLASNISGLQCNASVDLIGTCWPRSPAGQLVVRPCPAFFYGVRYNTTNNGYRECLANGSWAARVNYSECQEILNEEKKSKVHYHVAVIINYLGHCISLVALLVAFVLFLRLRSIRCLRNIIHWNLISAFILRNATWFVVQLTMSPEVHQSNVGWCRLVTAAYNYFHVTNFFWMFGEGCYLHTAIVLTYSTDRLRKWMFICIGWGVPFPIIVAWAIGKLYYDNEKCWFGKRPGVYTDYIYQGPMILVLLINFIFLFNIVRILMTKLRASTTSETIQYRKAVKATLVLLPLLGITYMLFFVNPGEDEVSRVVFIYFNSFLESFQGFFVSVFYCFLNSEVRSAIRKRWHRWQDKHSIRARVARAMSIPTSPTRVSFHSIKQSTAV
The test can be described thus: CRF1R agonist activity (EC50 and Emax), called comparative CRF binding. It is filed as cell-based. Put shortly:
as §1

As to `CC[C@H](C)[C@H](NC(=O)[C@@H](NC(=O)[C@H](CC(=O)O)NC(=O)[C@H](CC(C)C)NC(=O)[C@H](CC(C)C)NC(=O)[C@H](CCCNC(=N)N)NC(=O)[C@H](C)NC(=O)[C@H](CC(N)=O)NC(=O)[C@H](CC(N)=O)NC(=O)[C@H](C)NC(=O)[C@H](C)NC(=O)[C@H](CCC(N)=O)NC(=O)[C@H](CCC(N)=O)NC(=O)[C@H](CCCCN)NC(=O)[C@H](CCC(=O)O)NC(=O)[C@H](CCCCN)NC(=O)[C@H](CCC(=O)O)NC(=O)[C@H](CCC(N)=O)NC(=O)[C@H](CCCCN)NC(=O)[C@H](CCC(=O)O)NC(=O)[C@@H](NC(=O)[C@H](CCC(=O)O)NC(=O)[C@@H](NC(=O)[C@@H](NC(=O)[C@H](CCCCN)NC(=O)[C@H](CCCNC(=N)N)NC(=O)[C@H](CC(C)C)NC(=O)[C@H](CC(C)C)NC(=O)[C@H](Cc1c[nH]c2ccccc12)NC(=O)[C@H](Cc1ccc(O)cc1)NC(=O)[C@@H]1CCCN1C(=O)[C@@H](NC(=O)[C@H](CC(=O)O)NC(=O)[C@@H](NC(=O)[C@H](CO)NC(=O)[C@@H](NC(=O)[C@@H]1CCCN1C(=O)[C@@H]1CCCN1C(=O)CNC(=O)[C@@H]1CCC(=O)N1)[C@@H](C)CC)[C@@H](C)CC)C(C)C)C(C)C)[C@@H](C)CC)[C@@H](C)CC)[C@@H](C)O)C(N)=O` [compound 372], the EC50 at CRF2R (CRF2R EC50 (nM), CRF2R) was 14.2 nM; on CRF1R (CRF1R EC50 (nM), CRF1R), ≥ 1000 nM.
Regarding `CC[C@H](C)[C@H](N)C(=O)N[C@H](C(=O)N[C@@H](CC(C)C)C(=O)N[C@@H](CO)C(=O)N[C@@H](CC(C)C)C(=O)N[C@@H](CC(=O)O)C(=O)N[C@H](C(=O)N1CCC[C@H]1C(=O)N[C@H](C(=O)NCC(=O)N[C@@H](CC(C)C)C(=O)N[C@@H](CC(C)C)C(=O)N[C@@H](CCC(N)=O)C(=O)N[C@H](C(=O)N[C@@H](CC(C)C)C(=O)N[C@@H](CC(C)C)C(=O)N[C@@H](CCC(=O)O)C(=O)N[C@@H](CCC(N)=O)C(=O)N[C@@H](C)C(=O)N[C@@H](CCCNC(=N)N)C(=O)N[C@@H](C)C(=O)N[C@@H](CCCNC(=N)N)C(=O)N[C@@H](C)C(=O)N[C@@H](C)C(=O)N[C@@H](CCCNC(=N)N)C(=O)N[C@@H](CCC(=O)O)C(=O)N[C@@H](CCC(N)=O)C(=O)N[C@@H](C)C(=O)N[C@H](C(=O)N[C@H](C(=O)N[C@@H](CC(N)=O)C(=O)N[C@@H](C)C(=O)N[C@@H](CCCNC(=N)N)C(=O)N[C@H](C(=O)N[C@@H](CC(C)C)C(=O)N[C@@H](C)C(=O)N[C@@H](CCCNC(=N)N)C(=O)N[C@H](C(N)=O)C(C)C)[C@@H](C)CC)[C@@H](C)O)[C@@H](C)O)[C@@H](C)CC)[C@@H](C)CC)C(C)C)C(C)C` [hUroII, reference compound], the EC50 was 3.64 nM at CRF2R (CRF2R EC50) and > 100 nM at CRF1R (CRF1R EC50).

Usually EC50 stands for the concentration needed to bring the measured effect to its halfway point.

Values taken from patent US7632933B2, “Corticotropin releasing factor 2 receptor agonists” (priority 2002, dated 2009).
